# Data reported in PubChem BioAssay AID504607 (Sanford-Burnham Center for Chemical Genomics, 2011).
# The list shows a part of the results, in another mix than the full data. The source made the active and inactive calls.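 The calls were made as follows: active = mean inhibition at 8 µM reaching about 37%, which flags the compound as non-specific (limit read from the data); inactive = the rest.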
# Test: full-length luciferase signal inhibition, confirmation, counter-screen for Mdm2/MdmX interaction inhibitor project, cell-based, single concentration, SaOS-2 (AID 504607);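 also: p53-null SaOS-2 cells with luciferase driven by a doxycycline-inducible promoter; compound on cells about two nights before reading with doxycycline added after day one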
# Conditions: SaOS-2 full-length luciferase counterscreen, luminescence; at 8 µM; active compounds read high
row,Structure (SMILES),inhibition
1,CN(C)C(=O)c1cc([N+](=O)[O-])cc2c1-c1c(cc([N+](=O)[O-])cc1[N+](=O)[O-])C2=O,inactive: 0.81%
2,CCC1=CC2Cc3nc4ccc(Cl)cc4c(N)c3C(C1)C2 (stereo not drawn),active: 62.6%
3,C[N+]1=C2C=CC=CC=C2SC12C([N+](=O)[O-])=CC([N+](=O)[O-])=C[C-]2[N+](=O)[O-] (stereo not drawn),active: 41.3%
